In PubChem BioAssay AID449763 (Sanford-Burnham Center for Chemical Genomics, 2010):
Only a part is listed here, and it is no random draw. Calls of active or inactive are those of the source.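 How the source made its calls: active means at 10 µM dose, activation of 40% or more, normalized to positive control; inactive means the rest.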

Assay: PERK-eIF2a-CHOP pathway stimulators – cell-based, CHO-CHOP luciferase reporter, luminescence, uHTS, primary screen (AID 449763);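 further: 100% = tunicamycin at 10 µg/mL and 0% = DMSO alone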
Settings: UPR activation, at 10 µM, hits give high values, percent of tunicamycin response over DMSO baseline
How it was run: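 assay system = CHO CHOP reporter cells | amount = 500 CHO-CHOP cells per well | buffer or medium = F12 with 10% FBS | incubation = 16-18 h cell attachment, then 6 h compound exposure, 37 °C | detection = luminescence read with Steady-Glo | read-out = percent activation relative to tunicamycin control | controls = tunicamycin high control, DMSO low control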

| SMILES | activation |
| --- | --- |
| O=C(NCC1(N2CCCCC2)CCCCC1)c1ccc(OC(F)F)cc1 | inactive: 0.679% |
| CCN1CCC(Nc2ccc(Cl)cc2)CC1 | inactive: -0.467% |
| N#CC1(Nc2ccccc2)CCN(CCc2ccccc2)CC1 | inactive: -1.73% |
| CSc1ccc(C(=O)NCC2(N3CCOCC3)CCCCC2)cc1 | inactive: 2.51% |
| O=C(NCC1(N2CCCCC2)CCCCC1)c1cccc([N+](=O)[O-])c1 | inactive: 1.53% |
| O=C(NCC1(N2CCCCC2)CCCCC1)c1cccc(C(F)(F)F)c1 | inactive: -0.593% |
| COc1cc(C(=O)NCC2(N3CCCCC3)CCCCC2)ccc1OC(F)F | inactive: 2.99% |
| O=C(NCC1(N2CCOCC2)CCCCC1)c1cc(=O)[nH]c2ccccc12 | inactive: -0.74% |
| CN1CCN(CCOC(=O)C(O)(c2ccccc2)c2ccccc2)CC1 | inactive: -1.1% |
| CC(C)c1ccc(C(=O)NCC2(N3CCOCC3)CCCCC2)cc1 | inactive: 2.74% |
| COc1ccc(NC2CCN(C(=O)OC(C)(C)C)CC2)cc1 | inactive: 0.671% |
| CC(C)c1ccc(NC2CCN(C(=O)OC(C)(C)C)CC2)cc1 | inactive: 6.06% |
| COc1ccc(CN(CCCl)CCCl)cc1Cl | inactive: 1.8% |
| CN(C)c1cccc(C(=O)NCC2(N3CCCCC3)CCCCC2)c1 | inactive: -1.08% |
| COc1cc(OC)c(C(=O)NCC2(N(C)C)CCCCC2)cc1OC | inactive: 1.07% |
| O=C(NCC1(N2CCOCC2)CCCCC1)c1cc(F)c(F)cc1Cl | inactive: 0.0927% |
| O=C(NCC1(N2CCCCC2)CCCCC1)c1cncc(Br)c1 | inactive: 1.82% |
| CN1CCC(Nc2cccc(F)c2)CC1 | inactive: -0.868% |
| COc1ccc(C(=O)NCC2(N3CCCCC3)CCCCC2)cc1 | inactive: 1.75% |
| CC(C)(C)OC(=O)N1CCC(N(C(=O)c2ccccc2)c2ccc(F)cc2)CC1 | inactive: -1.41% |
| COc1ccc(C(=O)NCC2(N3CCCCC3)CCCCC2)c(OC)c1OC | inactive: 1.96% |
| O=C(NCC1(N2CCCCC2)CCCCC1)c1ccc(=O)[nH]c1 | inactive: -2.05% |
| O=C(NCC1(N2CCCCC2)CCCCC1)c1cccs1 | inactive: 1.86% |
| CSc1ccccc1C(=O)NCC1(N2CCCCC2)CCCCC1 | inactive: 0.307% |
| O=C(NCC1(N2CCCCC2)CCCCC1)c1ccc(Cl)nc1 | inactive: 0.729% |
| Cc1cc(C)cc(N(C(=O)c2ccccc2)C2CCN(C(=O)OC(C)(C)C)CC2)c1 | inactive: -0.185% |
| O=C(NCC1(N2CCOCC2)CCCCC1)c1cc2ccccc2o1 | inactive: 0.737% |
| O=C(OC1CN2CCC1CC2)C1c2ccccc2Oc2ccccc21 (stereo not drawn) | inactive: 2.57% |
